From patent publication US20110039779A1 (published 2011)

By UniProt entry, the sequences of proteins in these tests, tags left out. Residues count along the entry.
UniProt P06213, 28-1382 limits assumed: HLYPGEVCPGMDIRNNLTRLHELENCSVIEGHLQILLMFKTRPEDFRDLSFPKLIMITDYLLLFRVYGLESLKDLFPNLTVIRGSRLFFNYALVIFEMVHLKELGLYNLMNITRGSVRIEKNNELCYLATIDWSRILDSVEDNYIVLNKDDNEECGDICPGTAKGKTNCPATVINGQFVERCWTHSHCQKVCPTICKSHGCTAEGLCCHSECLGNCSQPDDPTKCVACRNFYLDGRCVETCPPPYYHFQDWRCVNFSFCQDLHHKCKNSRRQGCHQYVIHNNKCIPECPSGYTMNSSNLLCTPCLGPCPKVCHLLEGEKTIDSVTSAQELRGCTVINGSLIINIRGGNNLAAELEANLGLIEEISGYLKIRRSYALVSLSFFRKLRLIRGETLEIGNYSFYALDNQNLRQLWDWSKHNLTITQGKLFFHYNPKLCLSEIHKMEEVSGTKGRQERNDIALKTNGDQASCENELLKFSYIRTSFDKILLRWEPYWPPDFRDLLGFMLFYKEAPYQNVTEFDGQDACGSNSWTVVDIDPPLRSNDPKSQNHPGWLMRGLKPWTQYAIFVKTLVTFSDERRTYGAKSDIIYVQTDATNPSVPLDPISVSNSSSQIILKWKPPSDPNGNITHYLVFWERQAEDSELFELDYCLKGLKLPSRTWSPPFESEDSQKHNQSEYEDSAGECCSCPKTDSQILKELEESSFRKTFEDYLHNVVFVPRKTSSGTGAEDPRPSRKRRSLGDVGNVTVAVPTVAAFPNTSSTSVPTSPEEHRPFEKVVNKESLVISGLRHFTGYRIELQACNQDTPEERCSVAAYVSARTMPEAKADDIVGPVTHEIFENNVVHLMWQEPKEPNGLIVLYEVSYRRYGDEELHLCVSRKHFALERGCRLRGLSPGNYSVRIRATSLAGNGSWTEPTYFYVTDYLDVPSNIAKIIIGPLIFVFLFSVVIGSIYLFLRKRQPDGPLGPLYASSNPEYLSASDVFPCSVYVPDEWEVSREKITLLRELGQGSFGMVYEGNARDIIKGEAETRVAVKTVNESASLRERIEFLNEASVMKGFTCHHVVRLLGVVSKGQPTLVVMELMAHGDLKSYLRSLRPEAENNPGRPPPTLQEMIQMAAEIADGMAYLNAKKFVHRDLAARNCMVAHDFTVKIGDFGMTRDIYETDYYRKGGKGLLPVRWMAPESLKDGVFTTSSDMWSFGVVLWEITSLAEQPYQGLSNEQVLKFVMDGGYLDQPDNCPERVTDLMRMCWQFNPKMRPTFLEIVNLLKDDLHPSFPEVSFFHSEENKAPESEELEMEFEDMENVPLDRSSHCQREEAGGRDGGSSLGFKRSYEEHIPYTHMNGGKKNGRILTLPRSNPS
UniProt P08069, 31-1367 limits assumed: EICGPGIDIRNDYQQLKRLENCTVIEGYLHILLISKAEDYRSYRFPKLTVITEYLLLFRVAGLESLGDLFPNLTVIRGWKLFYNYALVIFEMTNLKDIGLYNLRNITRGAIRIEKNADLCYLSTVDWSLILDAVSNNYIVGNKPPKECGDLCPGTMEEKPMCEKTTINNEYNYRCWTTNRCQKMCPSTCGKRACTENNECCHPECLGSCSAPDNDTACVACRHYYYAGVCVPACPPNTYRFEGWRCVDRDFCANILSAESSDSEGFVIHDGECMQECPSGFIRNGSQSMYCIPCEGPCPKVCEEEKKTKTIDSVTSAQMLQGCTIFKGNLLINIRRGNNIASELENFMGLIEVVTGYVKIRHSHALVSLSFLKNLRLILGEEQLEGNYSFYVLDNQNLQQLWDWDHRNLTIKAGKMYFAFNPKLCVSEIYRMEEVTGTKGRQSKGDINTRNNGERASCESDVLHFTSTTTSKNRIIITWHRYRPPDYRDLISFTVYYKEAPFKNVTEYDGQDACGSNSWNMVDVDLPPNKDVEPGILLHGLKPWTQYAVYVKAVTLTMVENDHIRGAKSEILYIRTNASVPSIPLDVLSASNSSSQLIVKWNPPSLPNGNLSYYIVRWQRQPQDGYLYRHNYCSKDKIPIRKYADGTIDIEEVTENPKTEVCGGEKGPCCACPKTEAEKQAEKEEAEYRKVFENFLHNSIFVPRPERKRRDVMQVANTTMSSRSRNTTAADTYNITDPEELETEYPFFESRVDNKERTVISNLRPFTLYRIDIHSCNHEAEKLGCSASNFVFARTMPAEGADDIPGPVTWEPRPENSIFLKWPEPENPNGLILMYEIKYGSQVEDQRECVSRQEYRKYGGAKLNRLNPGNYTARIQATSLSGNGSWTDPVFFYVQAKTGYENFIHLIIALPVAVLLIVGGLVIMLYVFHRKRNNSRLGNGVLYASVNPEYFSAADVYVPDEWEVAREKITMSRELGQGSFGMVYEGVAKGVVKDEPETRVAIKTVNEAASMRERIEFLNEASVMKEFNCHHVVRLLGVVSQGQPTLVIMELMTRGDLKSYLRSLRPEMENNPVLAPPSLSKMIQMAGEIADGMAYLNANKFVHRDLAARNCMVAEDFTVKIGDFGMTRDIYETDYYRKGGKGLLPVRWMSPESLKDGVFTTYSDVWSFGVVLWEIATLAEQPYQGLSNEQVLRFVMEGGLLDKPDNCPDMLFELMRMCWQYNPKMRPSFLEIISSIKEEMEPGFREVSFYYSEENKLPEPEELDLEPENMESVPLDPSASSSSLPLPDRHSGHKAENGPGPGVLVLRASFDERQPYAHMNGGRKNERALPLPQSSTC
UniProt P08069, 31-935: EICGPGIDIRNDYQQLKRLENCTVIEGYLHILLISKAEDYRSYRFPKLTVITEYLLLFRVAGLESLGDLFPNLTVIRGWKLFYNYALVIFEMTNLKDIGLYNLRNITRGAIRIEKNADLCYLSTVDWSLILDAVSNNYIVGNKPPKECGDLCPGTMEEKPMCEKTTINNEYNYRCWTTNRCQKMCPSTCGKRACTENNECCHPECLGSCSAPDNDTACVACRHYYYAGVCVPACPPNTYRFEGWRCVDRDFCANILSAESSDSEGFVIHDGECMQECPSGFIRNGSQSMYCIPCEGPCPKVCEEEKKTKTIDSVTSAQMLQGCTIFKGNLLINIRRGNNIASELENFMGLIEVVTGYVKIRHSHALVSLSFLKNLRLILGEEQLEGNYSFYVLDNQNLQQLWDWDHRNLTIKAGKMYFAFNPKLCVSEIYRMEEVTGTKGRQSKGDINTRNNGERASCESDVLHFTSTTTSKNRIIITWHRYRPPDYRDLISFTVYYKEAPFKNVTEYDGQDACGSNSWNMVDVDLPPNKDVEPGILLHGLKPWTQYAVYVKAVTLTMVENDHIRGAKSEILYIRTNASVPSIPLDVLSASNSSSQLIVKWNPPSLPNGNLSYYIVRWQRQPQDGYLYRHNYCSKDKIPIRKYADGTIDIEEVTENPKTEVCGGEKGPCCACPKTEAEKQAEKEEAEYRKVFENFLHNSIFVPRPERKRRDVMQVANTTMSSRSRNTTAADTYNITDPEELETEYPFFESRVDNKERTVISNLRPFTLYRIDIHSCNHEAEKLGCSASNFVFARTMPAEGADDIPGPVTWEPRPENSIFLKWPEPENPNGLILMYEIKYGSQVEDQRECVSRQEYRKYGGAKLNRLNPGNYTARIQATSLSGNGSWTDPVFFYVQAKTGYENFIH

Key:
[1] = biological target: T1, human insulin receptor (HIR) (human, UniProt P06213 28-1382, limits assumed); assay: HIR affinity, measured similarly to the IGF-1R displacement assay (tracer not named)
T1 construct: preparation not described

[2] = biological target: T2, human insulin-like growth factor-1 receptor (HIGF-1R) (human, UniProt P08069 31-1367); assay: 125I-IGF-1 displacement, SPA-assay
T2 construct: Detergent-solubilised receptor purified on WGA-agarose; also called HIGFIR
From the text: In certain cases, a scintillation proximity assay (SPA assay) was used to determine IGF-1R affinity.

[3] = biological target: T3, Human IGF-1R (HIGF-1R), purified from BHK cells stably transfected with IGF-1R cDNA (human, UniProt P08069 31-1367); assay: 125I-IGF-1 competition on purified HIGF-1R (affinity assay of Table 4); unit inferred
T3 construct: Receptor preparation of the PEG, SPA and kinase assays; also called HIGFIR; human insulin-like growth factor-1 receptor

[4] = biological target: T3, Human IGF-1R (HIGF-1R), purified from …; assay: column 'Binding (nM)'; same values as Kd of Table 9; 125I-IGF-1 competition on purified HIGF-1R
[5] = biological target: T4, His-tagged soluble recombinant human IGF-IR (srhIGF-1R-his; R&D systems) (human, UniProt P08069 31-935); assay: AlphaScreen competition with biotinylated hIGF-1 on srhIGF-1R-his
T4 construct: extracellular domain; Bought protein; also called extra-cellular domain of IGF-1R; not shown: His tag
Procedure: Binding Assays. […] Detection of the receptor ligand interaction was measured in an amplified luminescent proximity homogeneous assay (ALPHAScreen; BioSignal-Packard, Montreal). The assay was performed in 384-well Nunc™ white polystyrene microplates (Nalge Nunc International, Naperville, Ill.) with a final volume of 40 μL. […] Each concentration of competitor was assayed in duplicate. […] The second step of the assay was to add acceptor beads and the incubation continued for 0.5 hr. The final step was to add donor beads and the incubation continued for an additional 1 hr. […] Primary data were background corrected, normalized to buffer controls and then expressed as % Specific Binding. The data were fit to a four-parameter non-linear regression analysis (y=min+(max-min)/(1+10̂((log IC₅₀-x)*Hillslope))), which was used to determine IC₅₀ values. The Z′-factor for this assay is greater than 0.7 (Z′=1-(3σ++3σ−)/|μ+−μ−|) and the signal-to-background (SB) ratio was between 40 and 70.

[6] = biological target: T3, Human IGF-1R (HIGF-1R), purified from …; assay: competition with 125I-IGF-1 on purified HIGF-1R (IGF-1 displacement)

## QFYGCLLDLSLGVPSFGWRRRCITA [F138]
[1]
  Kd: 46 nM
[2]
  Kd: 6.1 nM

## NFYGCLLDLSLGVPSFGWRRRCITA [F408]
[3]
  Kd: 1.6 nM
[4]
  Kd: 1.6 nM

## DFYGCLLDLSLGVPSLGWRRRCITA (also called Test Article F429) [F429]
[3]
  Kd: 0.63 nM
[4]
  Kd: 0.63 nM

## EVDRDCQARPCGDAANFYDWFGQQGTE [F269]
[5]
  IC50: 510 nM
[6]
  IC50: 890 nM

## RGNVGGGSLDESFYEWFERQLGR [F271]
[5]
  IC50: 5600 nM
[6]
  IC50: 1700 nM

## GSGGYASRDESFYEWFERQLA [F276]
[5]
  IC50: 5100 nM
[6]
  IC50: 1600 nM

## VGRASGFPENFYDWFGRQLSLQSGEQRR (N-terminal 'Ac-' as printed) [F287]
[5]
  IC50: 8400 nM
[6]
  IC50: 7600 nM

## SFYSCLESLVNAPAEKSRGQWEGCRK [F296]
[5]
  IC50: 7.5 nM
[6]
  IC50: 57 nM
